{
  "sequences": {"note": "Amino acid sequences for entries named in this document (tags omitted). Residues count along the entry.", "UniProt P09483, 31-630 limits assumed": "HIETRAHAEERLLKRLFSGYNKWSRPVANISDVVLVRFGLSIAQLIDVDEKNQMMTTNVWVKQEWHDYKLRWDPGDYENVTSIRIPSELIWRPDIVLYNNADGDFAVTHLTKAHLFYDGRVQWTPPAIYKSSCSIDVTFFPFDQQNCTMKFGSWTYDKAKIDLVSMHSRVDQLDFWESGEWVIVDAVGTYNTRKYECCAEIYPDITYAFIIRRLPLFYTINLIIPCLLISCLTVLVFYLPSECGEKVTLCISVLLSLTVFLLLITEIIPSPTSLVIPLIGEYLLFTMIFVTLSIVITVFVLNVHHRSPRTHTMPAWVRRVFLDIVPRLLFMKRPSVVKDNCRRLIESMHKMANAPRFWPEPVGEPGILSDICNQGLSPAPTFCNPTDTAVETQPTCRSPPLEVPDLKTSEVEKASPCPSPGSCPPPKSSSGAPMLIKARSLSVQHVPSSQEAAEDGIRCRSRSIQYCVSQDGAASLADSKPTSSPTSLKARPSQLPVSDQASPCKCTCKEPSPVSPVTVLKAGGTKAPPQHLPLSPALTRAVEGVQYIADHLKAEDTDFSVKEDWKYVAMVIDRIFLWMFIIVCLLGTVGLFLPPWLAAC", "UniProt P12390, 25-500 limits assumed": "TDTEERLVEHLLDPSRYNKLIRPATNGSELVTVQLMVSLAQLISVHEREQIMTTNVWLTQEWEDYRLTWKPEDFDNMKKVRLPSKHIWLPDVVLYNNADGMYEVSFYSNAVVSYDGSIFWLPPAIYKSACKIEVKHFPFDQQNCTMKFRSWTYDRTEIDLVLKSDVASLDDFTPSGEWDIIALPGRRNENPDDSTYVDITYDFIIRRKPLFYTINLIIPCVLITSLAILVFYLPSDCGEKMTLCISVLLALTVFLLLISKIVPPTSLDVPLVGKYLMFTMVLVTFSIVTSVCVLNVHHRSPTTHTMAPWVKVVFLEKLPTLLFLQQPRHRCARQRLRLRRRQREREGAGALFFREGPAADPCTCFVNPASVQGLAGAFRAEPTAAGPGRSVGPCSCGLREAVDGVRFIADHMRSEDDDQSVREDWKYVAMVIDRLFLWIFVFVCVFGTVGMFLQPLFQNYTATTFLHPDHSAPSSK"},
  "source": "ChEMBL document CHEMBL1135438",
  "about": "“Synthesis and pharmacological characterization of novel analogues of the nicotinic acetylcholine receptor agonist (+/-)-UB-165” (J Med Chem, 2002)",
  "biological_target": "Neuronal acetylcholine receptor; alpha4/beta2 (Rattus norvegicus, UniProt P09483+P12390)",
  "assay": "Binding affinity at rat brain Nicotinic acetylcholine receptor alpha4-beta2",
  "outline": "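Rat brain P2 membranes (250 μg protein) competed against 10 nM (–)-[3H]nicotine, 30 min room temperature then 1 h at 4 °C; filtration. Nonspecific binding with 1 mM (–)-nicotine.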",
  "data": [
    {"smiles": "CC(=O)C1=CCCC2CCC1N2", "note": "(stereo unspecified)", "values": [
      {"measurement": "Ki", "value": 1.25, "unit": "nM"}
    ]}
  ]
}
